# Test results: BindingDB's records for PubMed 10688601 (Virginia Commonwealth University, 2000)
# Amino acid sequences for entries named in this document (tags omitted). A change or cut given only in a name is not applied to a line headed by its entry.
# UniProt P47936: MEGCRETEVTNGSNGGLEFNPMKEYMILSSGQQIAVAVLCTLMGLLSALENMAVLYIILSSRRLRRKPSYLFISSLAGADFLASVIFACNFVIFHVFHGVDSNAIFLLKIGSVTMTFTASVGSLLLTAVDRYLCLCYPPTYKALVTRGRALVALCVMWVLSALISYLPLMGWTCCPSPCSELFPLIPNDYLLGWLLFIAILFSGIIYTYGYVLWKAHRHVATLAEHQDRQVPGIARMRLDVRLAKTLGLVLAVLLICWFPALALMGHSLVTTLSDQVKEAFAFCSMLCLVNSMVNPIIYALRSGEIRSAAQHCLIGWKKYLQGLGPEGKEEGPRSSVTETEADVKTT
# Target: Cannabinoid receptor 2 (Mus musculus, UniProt P47936)
structure (smiles),measurement,value
"Cc1ccc(Cn2nc(C(=O)NC3C(C)(C)C4CC[C@@]3(C)C4)cc2-c2ccc(Cl)c(C)c2)cc1 (stereo partly specified) [N-(1,3,3-trimethylbicyclo(2.2.1)heptan-2-yl)-5-(4-chloro-3-methylphenyl)-1-(4-methylbenzyl)pyrazole-3-carboxamide]",Ki,0.05 nM
